Experimental data: PMC12120116 (Scientific Reports, 2025)

System: A. franciscana larvae
Test: Untargeted LC-MS/MS metabolomics of larvae at sublethal concentrations
Assay type: in vivo, Artemia franciscana
Details: LC1 and LC10, 24 and 48 h, vs vehicle control

CCCC(CCC)C(=O)O [VPA, valproic acid]
Abundance of L-glutamine, L-asparagine, dihydrothymine and dihydrouracil: moderate increases
Abundance of L-serine and isobutyryl-L-carnitine: increase
